According to PubChem BioAssay AID504652 (National Center for Advancing Translational Sciences (NCATS), 2011):
The entries are a selection whose mix differs from that of the whole data set. Some salts or complexes appear as unconnected parts, following the source record. Calls of active or inactive are those of the source. Rule as the data show it: active = activity change below about -30%; inactive = the rest.

Protein sequences, listed by entry. Tags and fused reporters are not part of them.
UniProt P21728, whole entry: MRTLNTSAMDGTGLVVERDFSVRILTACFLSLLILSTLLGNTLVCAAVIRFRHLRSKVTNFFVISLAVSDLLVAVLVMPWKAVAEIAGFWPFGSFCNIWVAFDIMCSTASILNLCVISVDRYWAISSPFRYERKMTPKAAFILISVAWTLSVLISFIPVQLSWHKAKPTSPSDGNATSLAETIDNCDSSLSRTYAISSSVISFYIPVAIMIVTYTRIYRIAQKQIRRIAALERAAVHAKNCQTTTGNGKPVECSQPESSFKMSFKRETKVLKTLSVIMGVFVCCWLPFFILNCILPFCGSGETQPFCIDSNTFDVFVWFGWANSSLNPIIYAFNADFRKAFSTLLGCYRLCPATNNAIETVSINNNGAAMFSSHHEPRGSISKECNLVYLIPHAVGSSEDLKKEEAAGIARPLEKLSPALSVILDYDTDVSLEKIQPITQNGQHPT

These compounds were tested against D(1A) dopamine receptor (Homo sapiens) (UniProt P21728) (assay: Antagonist of Human D 1 Dopamine Receptor: qHTS). Conditions: HEK293 TREx D1 cells, calcium flux, dopamine EC80; at 10 µM; hits give low values.
Excerpt: Dopamine receptors (DARs) are involved in the etiology and/or therapy of a number of neuropsychiatric and endocrine disorders. For instance, all receptor-based antiparkinsonian drugs work via stimulating the […] DAR subtype whereas all FDA-approved antipsychotic agents are antagonists of this receptor. […] There are three different types of allosteric modulators that we are seeking, two of which will stimulate or augment receptor signaling, allosteric agonists and potentiators, while the third, allosteric antagonists, will attenuate receptor signaling. The present primary screening assay measures compound antagonism after an EC80 addition of dopamine by tracking calcium flux in a […], inducible Hek293 Trex D1 cell line. NIH Chemical Genomics Center [NCGC] NIH Molecular Libraries Probe Centers Network [MLPCN] MLPCN Grant: NS064831-01 Assay Submitter (PI): David Sibley
Freshly passaged cells are plated in 1536 well black, clear bottom plates at a density of 4000 cells/well in 3 ul of complete media containing 1x tetracycline inducer. After an overnight incubation at 30 C in 5% CO2, cells are loaded with 2 ul of the no wash Calcium Assay Kit (ABD Bioquest) and incubated at room temperature for 30 to 90 minutes. Agonist read: A 10 cycle (1 second/cycle) baseline measurement is taken and then the FDSS online 1536 pintool delivers 23 nl of compound library (as well as dopamine controls) to the plate. The plate is measured for kinetically at 1 cycle/sec for 180 seconds. Following the 180 second read, 1 ul of an EC80 (negative modulation assay) is delivered by an onboard pipette head. Measurements are taken kinetically for an additional 180 seconds.
% is scaled to controls: 0 for no effect and ±100 for the full control effect.

Row | Compound | activity change, negative = inhibition
1 | O=C(NCC1(N2CCCCC2)CCCCC1)c1cccc(C(F)(F)F)c1 | inactive: 15.8%
2 | CCCOc1cccc(C(=O)NCC2(N3CCOCC3)CCCCC2)c1 | inactive: 1.47%
3 | O=[N+]([O-])c1cc([N+](=O)[O-])c(NCC2CCS(=O)(=O)C2)c([N+](=O)[O-])c1 (stereo not drawn) | inactive: -11.8%
4 | CC(C)c1ccc(C(=O)NCC2(N3CCOCC3)CCCCC2)cc1 | inactive: -3.56%
5 | COc1ccc(NC2CCN(C(=O)OC(C)(C)C)CC2)cc1 | inactive: -17.8%
6 | CN1CCN(CCOC(=O)C(O)(c2ccccc2)c2ccccc2)CC1 | inactive: -5.51%
7 | O=C(NCC1(N2CCOCC2)CCCCC1)c1cc(=O)[nH]c2ccccc12 | inactive: 1.17%
8 | COc1cc(C(=O)NCC2(N3CCCCC3)CCCCC2)ccc1OC(F)F | inactive: 8.76%
9 | O=C(NCC1(N2CCCCC2)CCCCC1)c1ccc(OC(F)F)cc1 | inactive: -5.46%
10 | CSc1ccc(C(=O)NCC2(N3CCOCC3)CCCCC2)cc1 | inactive: -0.663%
11 | CCOc1ccc(C(=O)NCC2(N3CCOCC3)CCCCC2)cc1 | inactive: 2.79%
12 | O=C(NCC1(N2CCCCC2)CCCCC1)c1cccc([N+](=O)[O-])c1 | inactive: -10.1%
13 | CCN1CCC(Nc2ccc(Cl)cc2)CC1 | inactive: -2.93%
14 | N#CC1(Nc2ccccc2)CCN(CCc2ccccc2)CC1 | inactive: 6.71%
15 | COc1ccc2c(c1O)-c1c(O)c(OC)cc3c1[C@H](C2)[N+](C)(C)CC3.O=[N+]([O-])c1cc([N+](=O)[O-])c([O-])c([N+](=O)[O-])c1[O-] | inactive: -2.65%
16 | O=C(NCC1(N2CCCCC2)CCCCC1)c1cncc(Br)c1 | inactive: 6.16%
17 | O=C(OC1CN2CCC1CC2)c1ccc([N+](=O)[O-])cc1 (stereo not drawn) | inactive: -10.9%
18 | CCCCOc1ccccc1C(=O)NCC1(N2CCOCC2)CCCCC1 | inactive: 18.7%
19 | O=C(NCC1(N2CCOCC2)CCCCC1)c1ccccc1Br | inactive: -8.87%
20 | CCCOc1ccc(C(=O)NCC2(N(C)C)CCCCC2)cc1OC | inactive: 18.3%
21 | COc1ccc(CN(CCCl)CCCl)cc1Cl | inactive: -5.09%

Row | Compound | activity change, negative = inhibition
22 | CN(C)c1cccc(C(=O)NCC2(N3CCCCC3)CCCCC2)c1 | inactive: -4.38%
23 | O=[N+]([O-])c1cc([N+](=O)[O-])c(OC2CCCCC2O)c([N+](=O)[O-])c1 (stereo not drawn) | inactive: -18.3%
24 | CC(C)c1ccc(NC2CCN(C(=O)OC(C)(C)C)CC2)cc1 | inactive: 1.32%
25 | COc1cc(OC)c(C(=O)NCC2(N(C)C)CCCCC2)cc1OC | inactive: 1.2%
26 | O=C(NCC1(N2CCOCC2)CCCCC1)c1cc2ccccc2o1 | inactive: 11%
27 | O=C(NCC1(N2CCCCC2)CCCCC1)c1ccc(Cl)nc1 | inactive: -17.9%
28 | Cc1cc(C)cc(N(C(=O)c2ccccc2)C2CCN(C(=O)OC(C)(C)C)CC2)c1 | inactive: 8.94%
29 | CCOC(=O)N1CCC(Nc2ccc(OC)cc2)CC1 | inactive: 28.5%
30 | N#CC1(Nc2ccccc2)CCN(Cc2ccccc2)CC1 | inactive: 6.02%
31 | O=C(NCC1(N2CCCCC2)CCCCC1)c1ccc(Cl)s1 | inactive: 48.8%
32 | O=C(OC1CN2CCC1CC2)C1c2ccccc2Oc2ccccc21 (stereo not drawn) | inactive: 4.53%
33 | COc1ccc(Cl)cc1C(=O)NCC1(N2CCOCC2)CCCCC1 | inactive: 12.7%
34 | O=C(NCC1(N2CCCCC2)CCCCC1)c1ccc(=O)[nH]c1 | inactive: 11.7%
35 | O=C(NCC1(N2CCCCC2)CCCCC1)c1cccs1 | inactive: -1.62%
36 | COc1ccc(C(=O)NCC2(N3CCCCC3)CCCCC2)cc1 | inactive: -0.571%
37 | CC(C)(C)OC(=O)N1CCC(N(C(=O)c2ccccc2)c2ccc(F)cc2)CC1 | inactive: -17.5%
38 | CSc1ccccc1C(=O)NCC1(N2CCCCC2)CCCCC1 | inactive: 18.8%
39 | CCOC(=O)N1CCC(Nc2cccc(C)c2)CC1 | inactive: -12.7%
40 | COc1cc(C(=O)NCC2(N(C)C)CCCCC2)ccc1OC(F)F | inactive: -3.98%
41 | Cc1ccc(OCC(C)C)c(CN(CCCl)CCCl)c1 | inactive: 2.28%
42 | CCOc1ccc(C)cc1CN(CCCl)CCCl | inactive: 0.285%

Row | Compound | activity change, negative = inhibition
43 | O=C(NCC1(N2CCOCC2)CCCCC1)c1ccc(Cl)cc1 | inactive: -25.2%
44 | CCCCOc1ccc(C(=O)NCC2(N3CCOCC3)CCCCC2)cc1 | inactive: 8.34%
45 | O=C(NCC1(N2CCCCC2)CCCCC1)c1ccc(F)cc1 | inactive: 7.84%
46 | CCOC(=O)N1CCC(Nc2ccc(F)cc2)CC1 | inactive: -2.92%
47 | COc1ccc(NC2CCN(CCc3ccccc3)CC2)c(OC)c1 | inactive: -7.25%
48 | COc1ccccc1C(=O)NCC1(N2CCOCC2)CCCCC1 | inactive: 5.8%
49 | CCN1CCC(Nc2cccc(F)c2)CC1 | inactive: 6%
50 | O=C(NCC1(N2CCCCC2)CCCCC1)c1ccco1 | inactive: 29.2%
51 | CC(C)(C)c1ccc(C(=O)NCC2(N3CCOCC3)CCCCC2)cc1 | inactive: 3.56%
52 | CN(C)c1ccc(C(=O)NCC2(N3CCCCC3)CCCCC2)cc1 | inactive: 0.341%
53 | Cc1ccccc1C(=O)NCC1(N(C)C)CCCCC1 | inactive: 8%
54 | COc1cc(OC)cc(C(=O)NCC2(N3CCCCC3)CCCCC2)c1 | inactive: 3.04%
55 | CN(C)C1(CNC(=O)c2ccc(C(C)(C)C)cc2)CCCCC1 | inactive: 15.1%
56 | Cc1ccc(C(=O)NCC2(N3CCCCC3)CCCCC2)o1 | inactive: 9.99%
57 | CCC(CO)(C(=O)OC1CN2CCC1CC2)c1ccccc1 (stereo not drawn) | inactive: 12.7%
58 | COc1cccc(C(=O)N(c2cc(C)cc(C)c2)C2CCN(C(=O)OC(C)(C)C)CC2)c1 | inactive: -1.18%
59 | COc1cc(OC)cc(C(=O)NCC2(N3CCOCC3)CCCCC2)c1 | inactive: 0.409%
60 | COc1cc(C(=O)NCC2(N3CCOCC3)CCCCC2)cc(OC)c1OC | inactive: 0.865%
61 | CCCOc1ccc(C)cc1CN(CCCl)CCCl | inactive: -7.56%
62 | CN1CCC(Nc2ccc(Cl)cc2)CC1 | inactive: 7.69%
63 | CCOc1ncccc1C(=O)NCC1(N2CCOCC2)CCCCC1 | inactive: 4.5%
